ChEMBL document CHEMBL1152885 (Bioorg Med Chem Lett, 2009)

Target: Carbonic anhydrase 2 (Homo sapiens, UniProt P00918)

## NS(=O)(=O)c1ccc2[nH]c(-c3cscn3)nc2c1
  Ki: 72.5 nM
